From ChEMBL document CHEMBL2321814, “Sulfocoumarins (1,2-benzoxathiine-2,2-dioxides): a class of potent and isoform-selective inhibitors of tumor-associated carbonic anhydrases” (J Med Chem, 2013)

What was measured:
Carbonic anhydrase 9 = Carbonic anhydrase 9 (Homo sapiens, UniProt Q16790)
Carbonic anhydrase 12 = Carbonic anhydrase 12 (Homo sapiens, UniProt O43570); test: Inhibition of human recombinant transmembrane CA12 catalytic domain after 6 hrs by stopped-flow CO2 hydration method

O=c1ccc2ccccc2o1 [COUMARIN]
Ki (Carbonic anhydrase 9): > 100 µM | Ki (Carbonic anhydrase 12): > 100 µM
